Experimental findings from US9969752B2, “Inhibitors of HIF prolyl hydroxylase” (MERCK SHARP & DOHME CORP., priority 2014, dated 2018) are described below.

Amino acid sequences for entries named in this document (tags omitted).
UniProt Q9GZT9, whole entry: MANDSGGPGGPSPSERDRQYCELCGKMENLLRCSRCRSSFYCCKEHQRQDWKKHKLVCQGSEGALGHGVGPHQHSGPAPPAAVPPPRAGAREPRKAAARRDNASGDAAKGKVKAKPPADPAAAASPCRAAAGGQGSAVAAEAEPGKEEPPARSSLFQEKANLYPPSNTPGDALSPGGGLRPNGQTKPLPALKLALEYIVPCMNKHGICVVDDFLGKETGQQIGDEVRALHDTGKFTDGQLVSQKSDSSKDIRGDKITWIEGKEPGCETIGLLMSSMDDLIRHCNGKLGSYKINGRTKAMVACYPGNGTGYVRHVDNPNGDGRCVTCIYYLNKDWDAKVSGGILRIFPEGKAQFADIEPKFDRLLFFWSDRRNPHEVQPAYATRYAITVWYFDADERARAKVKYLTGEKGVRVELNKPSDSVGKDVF

For the assay, the target named is Human HIF-PHD2 (Homo sapiens, UniProt Q9GZT9). The experiment in a line: Inhibition of the hydroxylation of a HIF peptide by PHD2 (time resolved fluorescence, 384-well). To be noted: read-out: Human HIF-PHD2 IC50; FLAG-tagged full length PHD2; 0.2 μM 2-oxoglutarate, 0.5 μM HIF-1α peptide; 45 minutes at room temperature. It counts as biochemical.

On to `Cc1ccc2c(O)c(C(=O)NCC(=O)O)c(=O)n3c2c1OCC3c1cscn1` (stereo not shown), for which the IC50 stood at 12 nM.

Usually IC50 stands for the concentration that gives 50% inhibition.
